Binding of CDR-mutated scFvs to a peptide of the spike HR2 region

Data: MIT Lincoln Laboratory AlphaSeq set, Engelhart et al. 2022, doi:10.1038/s41597-022-01779-4, as distributed in FLAb.

Target: peptide PDVDLGDISGINAS, taken from heptad repeat 2 (HR2) of SARS-CoV-2 spike.

Ab-14 is the parent antibody, in scFv form: VH, then a (GGGGS)3 linker, then VL. The heavy chain is unchanged in all variants.
VH: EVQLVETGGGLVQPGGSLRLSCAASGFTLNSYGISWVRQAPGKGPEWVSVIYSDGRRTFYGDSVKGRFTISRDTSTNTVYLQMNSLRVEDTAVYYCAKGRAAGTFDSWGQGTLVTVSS
VL: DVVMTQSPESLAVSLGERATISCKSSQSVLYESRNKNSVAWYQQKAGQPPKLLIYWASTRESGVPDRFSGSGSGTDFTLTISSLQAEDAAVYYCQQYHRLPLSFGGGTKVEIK

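The library (AAYL50) carries one to three amino acid substitutions per variant, with no insertions or deletions. The assay is AlphaSeq: two haploid yeast populations carry antibody and antigen on their surface. Pairs that bind mate more often; barcode pairs of the diploids are counted by sequencing. Scores were corrected for input abundance and mapped to Kd with protein pairs of known affinity run in the same pool. Each pool was mated in three replicate cultures.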

Each variant is given by its three light chain CDRs, as the data file delimits them; those of the parent are KSSQSVLYESRNKNSVA, WASTRES, QQYHRLPLS. Values are log10 of the apparent Kd in nM; lower means stronger binding. Averages over replicates are reported, and they cover detected replicates only. "ND" means that the variant was in the library but no mating with the target was seen in that replicate; the authors take this as a sign of poor binding, and no number exists. Empty control strains, which show no peptide, gave a signal in 18% of pairings with library AAYL50; the median was 4.19 and 95% of these signals were weaker than 2.99. No background was subtracted. For each scFv, signals with the empty controls are counted beside the result, with their mean in brackets. In this assay the parent's reference entry averaged 0.65; its copy inside this library read 1.68.

| # | CDR-L1 | CDR-L2 | CDR-L3 | log10 Kd, replicates | mean log10 Kd (nM) | signal with controls |
|---|---|---|---|---|---|---|
| 1 | KISQSVLYESRNKPSVA | WASTRES | MQYHRLPLS | 4.13 / ND / ND | 4.13 | 0/9 |
| 2 | KSSQSVLYESWNKNSVA | WSSTRES | QQWHRLPLS | ND / ND / ND | ND | 0/9 |
| 3 | GSSQSVLYESRSKNSVG | WASTRES | QQYHRLPLS | ND / ND / ND | ND | 0/9 |
| 4 | KSSQSVLLESRNKNSVA | WASTAES | QQYHRLPDS | 1.96 / 1.86 / 2.25 | 2.02 | 1/9 (3.73) |
| 5 | KSSQSVLYESRNKNSVA | WAGTRES | QQYHDLPHS | ND / ND / ND | ND | 0/9 |
| 6 | KSSQSVLYESRNKNSHA | WAYTRES | QQIHRLPLS | ND / ND / ND | ND | 0/9 |
| 7 | KSCQSVLYESRNKNNVA | WASTRES | QQYHFLPLS | 1.50 / 1.25 / 1.02 | 1.26 | 0/9 |
| 8 | KSSQSVLYESRNKNSVD | WASTRFS | QCYHRLPLS | ND / ND / ND | ND | 0/9 |
| 9 | KPSQSVLYESRNKNMVA | WASTRDS | QQYHRLPLS | 3.01 / ND / ND | 3.01 | 3/9 (3.87) |
| 10 | KSSQSVLYESRNKNSVA | WASCRES | CQYHRYPLS | ND / ND / ND | ND | 1/9 (4.31) |
| 11 | KSSQSVWYESRNKGSYA | WASTRES | QQYHRLPLS | 5.56 / 3.26 / ND | 4.41 | 5/9 (4.12) |
| 12 | KSSQSVLYEARNKNSVA | WASTRES | QQYHWLDLS | 3.55 / ND / ND | 3.55 | 1/9 (4.83) |
| 13 | KSMQSVLYEYRNKNSVA | WRSTRES | QQYHRLPLS | ND / ND / ND | ND | 3/9 (4.17) |
| 14 | KQSQSVLYESRNKNSVA | WASTGES | QQYHRLPLG | 0.68 / 0.94 / 0.67 | 0.76 | 3/9 (4.61) |
| 15 | KSSQSVLYNSRNKNSVC | WASTRES | AQYHRLPLS | ND / ND / ND | ND | 0/9 |
| 16 | KSSQSVLPESRNKNSVL | WASTRES | QQYYRLPLS | ND / ND / ND | ND | 0/9 |
| 17 | KASQSVLYRSRNKNSVA | WISTRES | QQYHRLPLS | 2.41 / ND / 4.39 | 3.40 | 6/9 (3.86) |
| 18 | KSSQSCLYESRNKNEFA | WASTRES | QQYHRLPLS | ND / ND / 5.09 | 5.09 | 1/9 (2.89) |
| 19 | KSSQSVLYESRNKNSVA | QASTREH | QQYHRLPLS | 0.20 / 0.49 / 0.29 | 0.33 | 1/9 (3.50) |
| 20 | KSSQSVLYESRNKNCVA | WYSTRES | QQYHELPLS | ND / ND / ND | ND | 1/9 (4.81) |
| 21 | KSSQSVLYGSRNKNSVA | WASNRES | QQIHRLPLS | 1.91 / 1.74 / 1.72 | 1.79 | 1/9 (4.47) |
| 22 | KYSQSVLYESRNKNSVA | MADTRES | QQYHRLPLS | 1.85 / 1.64 / 1.81 | 1.76 | 0/9 |
| 23 | KRSNSVLYESRNKNSVA | WASTWES | QQYHRLPLS | ND / ND / ND | ND | 0/9 |
| 24 | KSSQSVHYESRNKSSVA | WASTRES | EQYHRLPLS | 3.27 / 2.58 / 3.00 | 2.95 | 2/9 (5.25) |
| 25 | KSSQSCLYESRNKNSVA | WANTRES | QQYHVLPLS | 1.75 / 1.71 / 1.82 | 1.76 | 3/9 (4.58) |
| 26 | KSSQSVLYSSRNKNSVA | WASTRES | LQYHRLPAS | 4.36 / 3.65 / 4.30 | 4.10 | 2/9 (4.27) |
| 27 | KSSQSVLYESRNKNSVA | WHSTRES | QVYHRLWLS | ND / 4.80 / ND | 4.80 | 2/9 (4.18) |
| 28 | KSSQSVLYESRNMNSVA | NASTRES | QQYHDLPLS | 0.25 / 0.88 / 0.62 | 0.58 | 0/9 |
| 29 | KSSQSVLYESAYKRSVA | WASTRES | QQYHRLPLS | 2.34 / 2.60 / 2.99 | 2.64 | 0/9 |
| 30 | GSLQSVLYESRNKNSVA | WASGRES | QQYHRLPLS | ND / 4.79 / ND | 4.79 | 4/9 (4.53) |
| 31 | KSCQSVLYESSNKNSVA | WASTRES | QQYHRLPVS | 4.50 / ND / ND | 4.50 | 4/9 (4.32) |